{
  "source": "patent US11135316B2",
  "about": "“Imaging and treatment of pathophysiologic conditions by Cerenkov radiation” (priority 2014, dated 2021)",
  "data": [
    {"smiles": "O=C[C@H]([18F])[C@@H](O)[C@H](O)[C@H](O)CO", "note": "[FDG, 2′-deoxy-2′-(^18F)fluoro-D-glucose]", "values": [
      {"measurement": "viable cells", "setting": "STGM", "result": "> 95", "unit": "%"},
      {"measurement": "viable cells", "setting": "U266", "result": "> 95", "unit": "%"}
    ]}
  ]
}
